Antibody variant affinities, Ab-14 heavy chain, assay B

Values reported by Li et al. 2023, doi:10.1038/s41467-023-39022-2 (FLAb copy).

Target peptide (SARS-CoV-2 spike, HR2 region): PDVDLGDISGINAS

Parent: Ab-14, a human scFv built as VH, a 15-residue (Gly4Ser)3 linker, VL. Only the CDRs of the heavy chain vary.
VH: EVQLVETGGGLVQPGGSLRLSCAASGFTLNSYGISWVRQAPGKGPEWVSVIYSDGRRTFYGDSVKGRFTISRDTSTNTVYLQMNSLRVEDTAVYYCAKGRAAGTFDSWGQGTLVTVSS
VL: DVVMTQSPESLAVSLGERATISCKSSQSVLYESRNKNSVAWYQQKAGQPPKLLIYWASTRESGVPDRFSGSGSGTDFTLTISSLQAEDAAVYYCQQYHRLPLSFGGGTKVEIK

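The parent was found by panning a naive human phage display library on the peptide. These sequences belong to a second round, designed from the earlier measurements on random variants of the parent. Group labels follow the data file (Ctrl: baseline library sampled from a position-specific scoring matrix, with some repeated check sequences; Rand: our label for a block that the file lists under HC and that is probably the random mutants of the ten best first-round binders; En: ensemble of fine-tuned language models; GP: Gaussian process model; GPLM: also part of the Gaussian process libraries; HC: hill climbing; Gen: genetic algorithm; Gibbs: Gibbs sampling; a sequence that several methods proposed may carry one label only). AlphaSeq pools MATa yeast showing the antibodies with MATalpha yeast showing the peptide. The frequency of each diploid, read from paired DNA barcodes, reflects how well the two displayed proteins bind. Scores were corrected for input abundance and mapped to Kd with protein pairs of known affinity run in the same pool. The assay was run in six technical replicates.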

Each variant is given by its three heavy chain CDRs, as the data file delimits them; those of the parent are GFTLNSYGIS, VIYSDGRRTFYGDSVK, GRAAGTFDS. Variants here have at most six changes. Scale: log10 of Kd in nM, estimated from mating counts; low values are strong binders. Averages over replicates are reported, and they cover detected replicates only. An entry "nd" has no value in the source: the pair was not observed among the diploids in that replicate. This suggests poor binding but is not conclusive. The authors averaged sequences with at least three values out of six and counted those with two or fewer as poor binders. The range of this assay differs from that of the first round, and the authors advise against merging the two. As a blank, each scFv also met three strains without target: over all heavy chain designs, 1% of these pairings were detected, typically at 2.08 and seldom below 0.84.

For KFDLNSYGIS / VIYSDGRRTFYADSVK / GRMAGTFDS [GP_Gibbs], the assay gave 0.77, 0.29, 0.53, 0.53, 0.19, 0.45 (mean 0.46). Variant GFSLNSYGIS / VIYSDGRRTFYHDSVK / GTAAGTFDS [GPLM_Gen] showed 0.44, 0.24, 0.51, 0.80, 0.18, 0.48 (mean 0.44). Variant GFSLNQYGIS / VIYSDGRRTFYSDSVK / GTAAGTFDS [GPLM_HC] showed -0.54, -0.52, -0.49, -0.39, -0.72, -0.33 (mean -0.50). For GFDLNSYGIS / VIYSDGRRTFYGDEVK / GKTAGTFDS [GP_Gen], the assay gave -0.08, 0.62, 0.86, -0.16, 0.90, 0.46 (mean 0.43). Variant GFSLNWYGIS / VIYSDGRRTFYIDSVK / GEAAGTFDS [GP_HC] showed nd, nd, nd, nd, nd, 1.81. Variant YFSLNSYGIS / VIYSDGRRTFYADSVK / GRTAGTFDS [GPLM_Gen] showed 0.62, 0.04, nd, nd, nd, 1.34 (mean 0.67). For HFSLNEYGIS / VIYSDGRRTFYGDSVK / GRNAGTFDS [GP_Gen], the assay gave 1.01, 0.70, 1.56, 1.37, 0.59, 1.03 (mean 1.04). With AFTLNSYGIS / VIYSDGRRTFYSDSVK / GEAAGTFDS [GPLM_Gen] the result was 1.55, 0.90, 1.20, 1.29, 1.28, 1.63 (mean 1.31).

For GFTPESYGIS / VIYSDGRRTFYGDSVR / GRAAGTFKS [Ctrl], the assay gave nd, nd, nd, nd, nd, nd. Variant GFELNEYGIS / VIYSDGRRTFYGDGVK / GQAAGTFDK [GP_Gibbs] gave nd, nd, nd, nd, nd, nd. Variant GFTLNSYGIS / VIYRDGRRTFYGDSVK / AEAAGTFDE [Ctrl] gave nd, nd, nd, nd, nd, nd. Variant GFDLNSYGIS / VIYSDGRRTFYGDSVK / GKHAGTFDS [GP_Gen] showed 1.05, 0.66, 0.72, 0.31, 0.78, 0.72 (mean 0.71). For GFTLNEYGIS / VNYSDGRRTFYGDSVK / VRAAVTFDQ [Rand], the assay gave nd, nd, nd, nd, nd, nd. Variant GFTLNSYGIS / VIYSDGFRTFYGDRVK / GRAAGTFDS [Ctrl] showed nd, nd, nd, nd, nd, nd. With GFDLNTYGIS / VIYSDGRRTFYADSVK / GQTAGTFDS [GP_Gibbs] the result was 1.50, 1.04, 0.78, 0.96, 0.87, 0.81 (mean 0.99). For GFTLNSYGIS / VIYADGRRTFYGDSVK / GRLAGTFDI [GP_HC], the assay gave 0.75, 1.12, 1.22, 1.19, 1.80, 1.73 (mean 1.30).

Variant GFTLNSYGIS / VIYSDGERTFYGDSVK / GTAAGTVDS [Ctrl] gave nd, nd, nd, nd, nd, nd. Variant GFDLNSYGIS / VIYSDGRRTFYADAVK / GKTAGTFDS [GP_Gen] gave 0.38, 0.34, 1.12, 0.71, 0.59, 0.45 (mean 0.60). With GFDLNSYGIS / VIYSDGRRTFYGDSVK / GRQAGRFIS [GP_HC] the result was nd, nd, nd, nd, nd, nd. For GFTLNSYGIS / VIYSDGRRTLYGDSVV / GQGAGTFDS [Ctrl], the assay gave nd, nd, nd, nd, nd, nd. For GFTLLSYGIS / VIYSDGRRTFYDDSVK / GKLAGTFDS [GPLM_HC], the assay gave nd, 1.41, nd, nd, nd, nd. With TFTLNSYGIS / VIYSDGRRTFYGDSVK / GRAAGTFDS [Ctrl] the result was nd, nd, nd, nd, nd, nd. Variant GFNLNEYGIS / VIYADGRRTFYSDSVK / GEVAGTFDS [En_HC] gave -0.50, -0.05, -0.71, -0.43, -0.95, -0.81 (mean -0.58). Variant GFSLNSYGIS / VIYSDGRRTFYVDSVK / GRVAGTFDS [GPLM_Gen] showed 1.18, 1.21, 2.10, 0.75, 0.75, 0.45 (mean 1.07).

With GFTLNDYGIS / VIYSDGRRTMYGDSVK / GRAAQTFDS [Ctrl] the result was nd, nd, nd, nd, nd, nd. Variant GFDLNSYGIS / VIYSDGRRTFHGDSVK / GRAAGTFDS [Ctrl] gave nd, nd, nd, nd, nd, nd. Variant GFDLNSYGII / VIYSDGRRTFYGDPVK / GRAAGWFNS [Rand] gave nd, nd, nd, nd, nd, nd. Variant GFSLNQYGIS / VIYSDGRRTFYGDSVK / GRQAGTFDS [GPLM_Gen] showed 0.32, 0.12, 0.43, -0.42, -0.67, -0.53 (mean -0.13). For GFTLEEMGIS / VIYSDGRRTFYTDSVK / GRFAGTFDS [Rand], the assay gave 1.40, 2.05, nd, 0.71, 0.92, 1.62 (mean 1.34). Variant GFHLNTYGIS / VIYSDGRRTFYIDSVK / GQAAGTFDS [GP_Gibbs] gave nd, nd, nd, nd, nd, nd. Variant GFTLNSYGIS / VIYSDGRRTGYGDDVK / GRLAGTFDS [Ctrl] gave 1.27, 1.16, nd, 1.06, 0.97, 2.11 (mean 1.31). Variant GFTLNSYGIS / VIYSDGRRTFYIDSVK / GRIADTFDS [Ctrl] gave nd, nd, nd, nd, nd, nd.

With GFTLNEYGIS / VIYSDGRRTFYGDSVK / GRAAGTFEV [Ctrl] the result was nd, 0.90, nd, 2.30, 1.10, 0.89 (mean 1.30). Variant GFTLNSYGIS / VIYSDGKRTFYSDDVK / GRTAGTFDS [GPLM_HC] showed nd, 0.33, 0.22, 0.71, -0.46, 0.20 (mean 0.20). Variant GYTLNSYGSS / VIYSDGRRTFYGDSVK / GLACGTFDS [Ctrl] showed nd, nd, nd, nd, nd, nd. Variant GFSLNSYGIS / VIYSDGRRTFYSDSVK / GEAAGTFDD [GPLM_Gen] gave 0.38, 0.68, 0.28, 0.51, 0.14, 0.86 (mean 0.48). Variant GFDLNQYGIS / VIYSDGRRTFYGDSVK / GRTAGTFDS [GP_Gen] gave 0.48, -0.17, 0.47, -0.34, -0.35, 0.54 (mean 0.10). Variant GFTLDSYGIS / VIYSDGRRTFYGDSVK / GRAAGTFIQ [GP_HC] showed nd, nd, nd, nd, nd, nd. With GFSLNSYGIS / VIYSDGRRTFYGDSVK / GWAAGTFDD [GPLM_Gibbs] the result was nd, nd, nd, nd, -0.10, 0.71 (mean 0.31). Variant GFSLNEYGIS / VIYSDGRRTFYVDSVK / GRHAGTFDS [GP_Gen] gave 1.11, 0.12, 0.22, 0.09, 0.15, 0.55 (mean 0.37).

With GFTLNDYGIS / VIYSDGRRTFYSDSVK / GRVAGTFDS [GPLM_Gen] the result was 0.35, -0.27, -0.50, -0.14, 0.01, 0.25 (mean -0.05). Variant GFQLNSYGIS / VIYSDGRRTFYGDNVK / GRQAGTFDT [GP_Gibbs] showed nd, nd, 1.59, nd, nd, nd. For HFSLNNYGIS / VIYSDGRRTFYGDSVK / GRTAGTFDS [GPLM_Gen], the assay gave 1.43, 1.61, 1.62, 2.13, 0.97, 2.05 (mean 1.63).

For reference, 7 entries of the list once more:

CDR-H1	CDR-H2	CDR-H3	group	replicates, log10 nM	mean, log10 nM
GFTLNDYGIS	VIYSDGRRTMYGDSVK	GRAAQTFDS	Ctrl	nd, nd, nd, nd, nd, nd	nd
GFTLNSYGIS	VIYADGRRTFYGDSVK	GRLAGTFDI	GP_HC	0.75, 1.12, 1.22, 1.19, 1.80, 1.73	1.30
GFTLNEYGIS	VNYSDGRRTFYGDSVK	VRAAVTFDQ	Rand	nd, nd, nd, nd, nd, nd	nd
GFTLNSYGIS	VIYSDGRRTGYGDDVK	GRLAGTFDS	Ctrl	1.27, 1.16, nd, 1.06, 0.97, 2.11	1.31
YFSLNSYGIS	VIYSDGRRTFYADSVK	GRTAGTFDS	GPLM_Gen	0.62, 0.04, nd, nd, nd, 1.34	0.67
GFTLNSYGIS	VIYSDGKRTFYSDDVK	GRTAGTFDS	GPLM_HC	nd, 0.33, 0.22, 0.71, -0.46, 0.20	0.20
GFDLNSYGIS	VIYSDGRRTFHGDSVK	GRAAGTFDS	Ctrl	nd, nd, nd, nd, nd, nd	nd